From patent publication US4324801A, “Phenylguanidine acetylsalicylate compounds, process for production thereof, and pharmaceutical composition thereof” (Banyu Pharmaceutical Co. Ltd., priority 1981, dated 1982) come the findings set out here.

One series concerns rats. The series can be described thus: Antipyretic activity (peptone-induced rise in rectal temperature). The series is classed as in vivo, rat (male). Particulars: against the control, oral, 200 mg/kg, rat; 5% peponte s.c. (0.5 ml/100 g).
The next series in a line: in vivo. Particulars: mouse, po.

For the compound `Cc1cccc(Nc2ccccc2C(=O)O)c1C` [Mefenamic acid, reference compound], the Inhibiting ratio with rats worked out at 79.0%. In addition, in “in vivo”, the LD50 (usually the dose at which mortality reaches 50%) came to 800 mg/kg.
